One may read the IC50 as the midpoint of a concentration-inhibition curve.

The source of these data is ChEMBL document CHEMBL1135532, “Synthesis of potent leukotriene A(4) hydrolase inhibitors. Identification of 3-[methyl[3-[4-(phenylmethyl)phenoxy]propyl]amino]propanoic acid” (J Med Chem, 2002).

In experiment [1] the target is T1, Leukotriene A-4 hydrolase (Homo sapiens, UniProt P09960).
T1 sequence (P09960 whole entry): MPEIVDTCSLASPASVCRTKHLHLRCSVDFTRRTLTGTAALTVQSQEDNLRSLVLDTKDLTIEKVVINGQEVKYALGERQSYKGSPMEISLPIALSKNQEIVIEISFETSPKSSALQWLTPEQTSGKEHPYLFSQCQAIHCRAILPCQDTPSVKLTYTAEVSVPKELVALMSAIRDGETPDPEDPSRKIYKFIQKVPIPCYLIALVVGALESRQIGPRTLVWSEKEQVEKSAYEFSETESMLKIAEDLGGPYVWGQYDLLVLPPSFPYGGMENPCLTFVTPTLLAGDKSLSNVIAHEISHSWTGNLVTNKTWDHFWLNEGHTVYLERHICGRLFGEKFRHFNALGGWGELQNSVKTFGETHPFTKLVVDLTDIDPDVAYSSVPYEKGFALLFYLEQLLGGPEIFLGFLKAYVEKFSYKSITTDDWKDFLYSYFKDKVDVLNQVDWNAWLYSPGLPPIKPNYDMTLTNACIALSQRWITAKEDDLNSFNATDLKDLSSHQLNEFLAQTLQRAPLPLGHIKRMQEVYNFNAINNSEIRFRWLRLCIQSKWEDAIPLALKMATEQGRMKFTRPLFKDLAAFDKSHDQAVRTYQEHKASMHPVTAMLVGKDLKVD
The experiment is described as follows: Inhibition of human leukotriene A4 hydrolase (LTA-4).

For experiment [2], the target named is T1, Leukotriene A-4 hydrolase. The experiment is described as follows: Inhibition of human whole blood LTB-4 production (Leukotriene B-4). The format is functional.

As to `CN(CCCOc1ccc(Cc2ccccc2)cc1)CCC(=O)O.Cl`, the figures for the IC50 in experiment [1] and in experiment [2] were 2.5 nM and 49 nM, respectively.
